This experiment addresses cSRC (Homo sapiens, UniProt P12931). Description: KinaseProfiler radiometric kinase assay, cSRC wt. The note with it: read-out: cSRC IC50, wt.

Chains of the proteins cited; added tags and fusions are not shown.
UniProt P12931, whole entry: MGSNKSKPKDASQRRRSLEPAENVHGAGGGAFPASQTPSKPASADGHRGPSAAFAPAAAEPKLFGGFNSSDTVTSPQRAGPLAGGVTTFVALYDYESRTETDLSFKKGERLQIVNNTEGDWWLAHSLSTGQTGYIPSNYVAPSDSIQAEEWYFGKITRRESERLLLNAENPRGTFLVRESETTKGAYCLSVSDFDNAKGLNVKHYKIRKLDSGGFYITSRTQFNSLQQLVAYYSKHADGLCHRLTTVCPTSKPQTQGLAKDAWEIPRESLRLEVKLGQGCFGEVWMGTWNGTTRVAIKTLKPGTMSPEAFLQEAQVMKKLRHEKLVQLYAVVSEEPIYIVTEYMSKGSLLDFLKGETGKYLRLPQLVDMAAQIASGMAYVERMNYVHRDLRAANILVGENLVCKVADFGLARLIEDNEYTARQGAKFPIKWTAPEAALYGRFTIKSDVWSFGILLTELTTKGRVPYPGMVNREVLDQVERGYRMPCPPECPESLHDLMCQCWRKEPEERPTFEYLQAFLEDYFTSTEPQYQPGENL

Structures are written as SMILES.

In general, IC50 refers to the concentration needed to halve the response being measured. `COc1cc(Nc2c(C#N)cnc3cc(OCCON4CCN(C)CC4)c(OC)cc23)c(Cl)cc1Cl` [Compound 7, 4-((2,4-dichloro-5-methoxyphenyl)amino)-6-methoxy-7-(2-((4-methylpiperazin-1-yl)oxy)ethoxy)quinoline-3-carbonitrile]: the IC50 is 2 nM.

The values are drawn from patent publication US20260297031A1, “HYDROXYLAMINE-BASED BCR-ABL1 INHIBITORS FOR TREATMENT OF CANCER” (University of Georgia Research Foundation, Inc., priority 2023, published 2026).
